Laboratory results reported in article PMC11494340, “High-throughput screening for small-molecule stabilizers of misfolded glucocerebrosidase in Gaucher disease and Parkinson’s disease” (Proceedings of the National Academy of Sciences of the …, 2024).

Target: T1, HiBiT-GCase-L444P (Homo sapiens, UniProt P04062, L483P)
T1 sequence (P04062 40-536 L483P): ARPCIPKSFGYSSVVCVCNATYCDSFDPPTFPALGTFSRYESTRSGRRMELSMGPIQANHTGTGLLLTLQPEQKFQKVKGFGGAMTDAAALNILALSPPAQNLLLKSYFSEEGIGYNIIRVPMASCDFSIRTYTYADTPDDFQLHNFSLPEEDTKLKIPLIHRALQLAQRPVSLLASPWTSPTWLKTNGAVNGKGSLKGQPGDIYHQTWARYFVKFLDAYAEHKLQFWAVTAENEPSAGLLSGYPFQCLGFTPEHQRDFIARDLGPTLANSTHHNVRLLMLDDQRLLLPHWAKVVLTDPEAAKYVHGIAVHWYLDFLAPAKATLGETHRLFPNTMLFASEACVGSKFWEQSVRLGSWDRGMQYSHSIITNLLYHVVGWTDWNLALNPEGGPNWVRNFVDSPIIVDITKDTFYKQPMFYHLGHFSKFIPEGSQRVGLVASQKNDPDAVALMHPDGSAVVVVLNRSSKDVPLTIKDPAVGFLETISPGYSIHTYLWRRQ
Parameters: AUC: unit not given beside the values
Conditions: for Effect on HiBiT-GCase-L444P levels: 24 h treatment, 1536-well

AC50 (follow-up screen, 24 h) | AUC (follow-up screen, 24 h) | CC-v2 (qHTS curve class, follow-up screen, 24 h) | SMILES | Effect on HiBiT-GCase-L444P levels
 |  |  | Cc1cc(OCc2nnc(SC3CCCC3)n2-c2cccnc2)ccc1-c1ccc(S(C)(=O)=O)cc1 [NCGC00371131-03, NMS-873] | selectively stabilized HiBiT-GCase-L444P
 |  |  | CC(C)C[C@@H](C=O)NC(=O)[C@H](CC(C)C)NC(=O)[C@H](CC(C)C)NC(=O)OCc1ccccc1 [MG132] (Cbz-Leu-Leu-Leu-aldehyde) | selectively stabilized HiBiT-GCase-L444P
53 µM | -25.2 | 2.2 | CNCCCC12CCC(c3ccccc31)c1ccccc12 [NCGC00390084-01, Maprotiline hydrochloride] | 

Where a name gives a salt, the structure may show the parent alone. Peptide text beside a SMILES is read from it. * marks the point of attachment. Cbz = O=C(OCc1ccccc1)*
